Columns and labels:
[1] = In vitro intrinsic and hepatic clearance, human; type: in vitro ADME
mGlu2 = assay: Standard fold-shift selectivity assay; type: cell-based; conditions: 10 μM compound
mGlu3 = mGlu3 (Homo sapiens, UniProt Q14832); assay: Standard fold-shift selectivity assay; type: cell-based; conditions: 10 μM compound
mGlu7 = mGlu7 (Homo sapiens, UniProt Q14831); assay: Standard fold-shift selectivity assay; type: cell-based; conditions: 10 μM compound
mGlu5 = mGlu5 (Homo sapiens, UniProt P41594); assay: Standard fold-shift selectivity assay; type: cell-based; conditions: 10 μM compound
mGlu8 = mGlu8 (Homo sapiens, UniProt O00222); assay: Standard fold-shift selectivity assay; type: cell-based; conditions: 10 μM compound
mGlu6 = mGlu6 (Homo sapiens, UniProt O15303); assay: Standard fold-shift selectivity assay; type: cell-based; conditions: 10 μM compound
hmGlu4 = hmGlu4 (Homo sapiens, UniProt Q14833); assay: Calcium mobilization assay, mGlu4 PAM activity; type: cell-based; conditions: hmGlu4 EC50 over hmGlu1 EC50

Amino acid sequences for entries named in this document (tags omitted). Residues count along the entry.
UniProt Q14832, 23-879: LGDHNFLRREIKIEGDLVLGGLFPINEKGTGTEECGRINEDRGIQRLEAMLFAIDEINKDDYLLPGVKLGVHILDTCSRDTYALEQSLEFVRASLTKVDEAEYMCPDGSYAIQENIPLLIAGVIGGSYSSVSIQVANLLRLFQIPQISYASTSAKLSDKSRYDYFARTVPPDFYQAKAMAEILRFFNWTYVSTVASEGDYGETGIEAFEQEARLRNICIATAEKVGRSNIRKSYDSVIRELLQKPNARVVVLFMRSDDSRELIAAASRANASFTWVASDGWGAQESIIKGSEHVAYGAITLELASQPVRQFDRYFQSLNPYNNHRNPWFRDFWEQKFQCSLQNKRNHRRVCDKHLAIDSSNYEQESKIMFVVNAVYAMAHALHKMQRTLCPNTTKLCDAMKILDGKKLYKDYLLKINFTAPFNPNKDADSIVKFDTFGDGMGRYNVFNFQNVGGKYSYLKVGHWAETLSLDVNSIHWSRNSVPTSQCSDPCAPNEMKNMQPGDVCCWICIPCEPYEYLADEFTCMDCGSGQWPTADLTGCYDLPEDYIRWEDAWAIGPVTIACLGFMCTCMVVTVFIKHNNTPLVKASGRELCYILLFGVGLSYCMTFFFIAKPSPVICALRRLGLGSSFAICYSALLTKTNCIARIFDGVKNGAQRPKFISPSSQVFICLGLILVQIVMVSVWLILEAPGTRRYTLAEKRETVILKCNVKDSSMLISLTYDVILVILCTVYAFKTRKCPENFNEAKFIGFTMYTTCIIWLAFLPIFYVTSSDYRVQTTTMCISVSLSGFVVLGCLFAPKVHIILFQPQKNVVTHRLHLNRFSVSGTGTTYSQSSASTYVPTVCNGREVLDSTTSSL
UniProt Q14831, 35-915: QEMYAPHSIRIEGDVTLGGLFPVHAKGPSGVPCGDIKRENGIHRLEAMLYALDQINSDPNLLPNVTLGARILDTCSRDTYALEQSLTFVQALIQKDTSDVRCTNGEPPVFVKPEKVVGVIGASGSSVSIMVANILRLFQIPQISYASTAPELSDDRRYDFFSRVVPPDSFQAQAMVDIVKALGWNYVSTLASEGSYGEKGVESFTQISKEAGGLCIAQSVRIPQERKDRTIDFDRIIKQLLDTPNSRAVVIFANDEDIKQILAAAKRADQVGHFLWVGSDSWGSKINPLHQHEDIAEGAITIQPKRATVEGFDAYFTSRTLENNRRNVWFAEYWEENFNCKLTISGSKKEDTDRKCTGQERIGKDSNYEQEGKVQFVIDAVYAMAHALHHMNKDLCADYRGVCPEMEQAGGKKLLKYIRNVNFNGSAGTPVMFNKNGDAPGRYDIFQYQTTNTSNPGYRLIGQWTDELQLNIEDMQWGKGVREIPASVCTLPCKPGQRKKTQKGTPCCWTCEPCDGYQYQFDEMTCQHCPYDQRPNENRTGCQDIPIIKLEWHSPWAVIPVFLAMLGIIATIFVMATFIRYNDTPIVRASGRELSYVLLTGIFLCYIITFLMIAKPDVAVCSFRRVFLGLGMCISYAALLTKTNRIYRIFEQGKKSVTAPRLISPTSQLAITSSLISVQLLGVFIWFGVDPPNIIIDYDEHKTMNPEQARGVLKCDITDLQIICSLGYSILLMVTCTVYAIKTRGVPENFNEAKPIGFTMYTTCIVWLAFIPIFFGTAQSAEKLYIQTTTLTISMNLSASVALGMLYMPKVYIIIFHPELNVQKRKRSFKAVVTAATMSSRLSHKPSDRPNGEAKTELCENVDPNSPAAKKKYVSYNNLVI
UniProt P41594, 21-1212: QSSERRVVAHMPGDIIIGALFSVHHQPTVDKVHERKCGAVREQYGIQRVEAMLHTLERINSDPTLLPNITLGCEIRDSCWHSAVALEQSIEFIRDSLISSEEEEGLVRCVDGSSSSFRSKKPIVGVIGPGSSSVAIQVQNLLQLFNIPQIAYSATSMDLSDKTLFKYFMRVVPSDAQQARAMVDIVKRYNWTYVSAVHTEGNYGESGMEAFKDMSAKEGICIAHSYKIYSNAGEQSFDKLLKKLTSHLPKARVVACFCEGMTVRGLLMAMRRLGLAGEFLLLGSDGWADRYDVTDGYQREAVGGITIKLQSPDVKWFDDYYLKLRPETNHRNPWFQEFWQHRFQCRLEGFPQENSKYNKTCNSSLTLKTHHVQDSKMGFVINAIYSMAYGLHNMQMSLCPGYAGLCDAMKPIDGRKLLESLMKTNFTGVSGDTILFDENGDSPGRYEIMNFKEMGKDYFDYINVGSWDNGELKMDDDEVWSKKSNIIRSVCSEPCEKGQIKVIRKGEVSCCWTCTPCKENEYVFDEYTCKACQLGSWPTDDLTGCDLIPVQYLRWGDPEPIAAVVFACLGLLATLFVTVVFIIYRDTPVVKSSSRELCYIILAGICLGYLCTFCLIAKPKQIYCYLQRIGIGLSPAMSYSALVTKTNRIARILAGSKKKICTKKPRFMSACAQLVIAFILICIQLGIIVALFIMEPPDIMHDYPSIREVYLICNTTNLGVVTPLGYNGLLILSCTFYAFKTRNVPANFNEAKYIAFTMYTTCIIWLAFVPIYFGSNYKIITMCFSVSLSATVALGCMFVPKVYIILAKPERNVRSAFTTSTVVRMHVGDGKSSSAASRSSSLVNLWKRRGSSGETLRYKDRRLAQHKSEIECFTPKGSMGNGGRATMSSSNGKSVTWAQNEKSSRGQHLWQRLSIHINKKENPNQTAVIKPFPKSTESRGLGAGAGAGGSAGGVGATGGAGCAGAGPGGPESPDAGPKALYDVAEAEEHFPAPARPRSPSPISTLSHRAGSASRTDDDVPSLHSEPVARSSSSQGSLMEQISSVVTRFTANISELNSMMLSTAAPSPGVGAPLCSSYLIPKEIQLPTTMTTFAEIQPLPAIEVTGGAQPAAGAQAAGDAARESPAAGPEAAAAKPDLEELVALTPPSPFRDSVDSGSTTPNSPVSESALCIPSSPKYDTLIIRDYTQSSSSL
UniProt O00222, 34-908: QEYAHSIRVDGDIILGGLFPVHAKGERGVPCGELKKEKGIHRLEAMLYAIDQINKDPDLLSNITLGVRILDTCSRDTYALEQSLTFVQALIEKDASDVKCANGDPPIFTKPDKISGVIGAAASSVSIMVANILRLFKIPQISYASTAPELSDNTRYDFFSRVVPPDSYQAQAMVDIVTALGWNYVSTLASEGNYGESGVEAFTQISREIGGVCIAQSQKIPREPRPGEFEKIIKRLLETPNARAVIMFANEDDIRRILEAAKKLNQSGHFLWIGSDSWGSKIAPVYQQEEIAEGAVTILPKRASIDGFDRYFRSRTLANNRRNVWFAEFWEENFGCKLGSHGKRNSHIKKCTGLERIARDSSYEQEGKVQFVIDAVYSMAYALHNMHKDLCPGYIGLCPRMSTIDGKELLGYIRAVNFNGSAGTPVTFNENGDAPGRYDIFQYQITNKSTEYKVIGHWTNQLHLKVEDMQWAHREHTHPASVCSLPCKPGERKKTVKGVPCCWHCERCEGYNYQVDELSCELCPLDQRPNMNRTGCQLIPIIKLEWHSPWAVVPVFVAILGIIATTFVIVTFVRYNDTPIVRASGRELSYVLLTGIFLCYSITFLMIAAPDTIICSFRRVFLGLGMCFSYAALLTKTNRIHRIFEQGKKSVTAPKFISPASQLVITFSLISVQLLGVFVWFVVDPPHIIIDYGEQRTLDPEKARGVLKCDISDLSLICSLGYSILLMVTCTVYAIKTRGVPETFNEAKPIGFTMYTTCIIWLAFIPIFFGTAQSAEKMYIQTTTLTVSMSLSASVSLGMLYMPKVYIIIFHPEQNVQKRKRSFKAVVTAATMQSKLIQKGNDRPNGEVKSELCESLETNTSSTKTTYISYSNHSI
UniProt O15303, 25-877: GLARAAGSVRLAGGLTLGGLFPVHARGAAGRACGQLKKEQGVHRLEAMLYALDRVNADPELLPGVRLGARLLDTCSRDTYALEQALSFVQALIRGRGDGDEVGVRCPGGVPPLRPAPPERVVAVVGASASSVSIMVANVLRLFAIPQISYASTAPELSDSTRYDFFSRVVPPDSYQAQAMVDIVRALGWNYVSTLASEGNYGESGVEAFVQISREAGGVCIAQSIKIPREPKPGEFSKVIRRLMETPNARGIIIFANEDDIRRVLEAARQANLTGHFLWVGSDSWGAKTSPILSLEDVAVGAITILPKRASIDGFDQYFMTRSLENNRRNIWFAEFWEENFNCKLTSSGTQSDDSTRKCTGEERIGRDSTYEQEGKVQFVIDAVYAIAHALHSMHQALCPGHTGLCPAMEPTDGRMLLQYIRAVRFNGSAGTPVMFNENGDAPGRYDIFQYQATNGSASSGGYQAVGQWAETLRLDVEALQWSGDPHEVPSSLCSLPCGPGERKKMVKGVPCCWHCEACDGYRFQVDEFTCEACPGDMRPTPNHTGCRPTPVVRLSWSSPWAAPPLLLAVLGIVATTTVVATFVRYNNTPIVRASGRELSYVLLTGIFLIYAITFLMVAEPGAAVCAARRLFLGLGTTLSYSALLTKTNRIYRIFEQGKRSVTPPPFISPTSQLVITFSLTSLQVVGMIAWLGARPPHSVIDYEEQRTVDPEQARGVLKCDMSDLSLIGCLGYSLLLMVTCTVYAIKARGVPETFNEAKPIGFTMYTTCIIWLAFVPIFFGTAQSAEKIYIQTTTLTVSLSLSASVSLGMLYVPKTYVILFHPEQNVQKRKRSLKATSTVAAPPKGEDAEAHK
UniProt Q14833, 33-912: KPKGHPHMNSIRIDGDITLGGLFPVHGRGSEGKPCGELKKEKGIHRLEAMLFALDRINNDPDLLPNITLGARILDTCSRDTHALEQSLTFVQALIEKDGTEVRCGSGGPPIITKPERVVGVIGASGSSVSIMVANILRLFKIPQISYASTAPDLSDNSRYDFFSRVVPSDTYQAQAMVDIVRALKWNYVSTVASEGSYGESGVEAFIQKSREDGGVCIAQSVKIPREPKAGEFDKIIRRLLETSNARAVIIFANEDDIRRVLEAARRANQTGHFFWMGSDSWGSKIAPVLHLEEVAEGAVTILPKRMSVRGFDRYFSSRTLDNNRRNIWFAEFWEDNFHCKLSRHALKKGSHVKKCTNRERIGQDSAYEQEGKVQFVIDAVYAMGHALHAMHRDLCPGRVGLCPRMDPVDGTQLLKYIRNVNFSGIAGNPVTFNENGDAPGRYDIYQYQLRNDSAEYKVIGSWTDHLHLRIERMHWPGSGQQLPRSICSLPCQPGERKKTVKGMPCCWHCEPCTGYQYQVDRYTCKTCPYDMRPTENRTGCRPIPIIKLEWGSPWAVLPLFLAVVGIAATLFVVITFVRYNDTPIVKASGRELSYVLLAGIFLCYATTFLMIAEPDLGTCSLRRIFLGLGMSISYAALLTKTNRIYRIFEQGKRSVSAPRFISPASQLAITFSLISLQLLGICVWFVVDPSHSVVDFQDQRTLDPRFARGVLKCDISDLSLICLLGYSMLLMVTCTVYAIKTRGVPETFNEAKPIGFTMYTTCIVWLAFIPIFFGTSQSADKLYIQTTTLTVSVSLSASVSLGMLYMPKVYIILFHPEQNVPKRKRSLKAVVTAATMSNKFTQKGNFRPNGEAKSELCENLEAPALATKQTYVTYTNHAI

O=C(Nc1ccc(N2C(=O)c3cccc(Cl)c3C2=O)c(Cl)c1)c1ncccc1Cl [compound 8, reference compound]
human CLHEP [1]: 9.46 mL/min/kg

Cc1ccoc1C(=O)Nc1ccc(N2C(=O)c3ccc(Cl)cc3C2=O)c(Cl)c1 [17d, N-(3-Chloro-4-(5-chloro-1,3-dioxoisoindolin-2-yl)phenyl)-3-methylfuran-2-carboxamide]
fold shift of glutamate CRC at mGlu2 (mGlu2): < 2 fold
fold shift of glutamate CRC at mGlu3 (mGlu3): < 2 fold
fold shift of glutamate CRC at mGlu7 (mGlu7): < 2 fold
human CLHEP [1]: 2.54 mL/min/kg
fold shift of glutamate CRC at mGlu5 (mGlu5): < 2 fold
fold shift of glutamate CRC at mGlu8 (mGlu8): < 2 fold
fold shift of glutamate CRC at mGlu6 (mGlu6): < 2 fold

Cc1ccoc1C(=O)Nc1ccc(N2C(=O)c3ccncc3C2=O)c(Cl)c1 [17g, N-(3-Chloro-4-(1,3-dioxo-1,3-dihydro-2H-pyrrolo[3,4-c]-pyridin-2-yl)phenyl)-3-methylfuran-2-carboxamide]
fold shift of glutamate CRC at mGlu2 (mGlu2): < 2 fold
fold shift of glutamate CRC at mGlu3 (mGlu3): < 2 fold
fold shift of glutamate CRC at mGlu7 (mGlu7): < 2 fold
fold selective vs mGlu4 (hmGlu4): >100 fold
human CLHEP [1]: 18.6 mL/min/kg
fold shift of glutamate CRC at mGlu5 (mGlu5): < 2 fold
fold shift of glutamate CRC at mGlu8 (mGlu8): < 2 fold
fold shift of glutamate CRC at mGlu6 (mGlu6): < 2 fold

O=C(Nc1nc(C(F)(F)F)co1)C1c2ccccc2Oc2ccccc21 [compound 5, reference compound]
human CLHEP [1]: 19.4 mL/min/kg

— PMC4839290 (Journal of medicinal chemistry, 2015)
